GSIS activator – primary screen for activators of insulin secretion dependent on glucose, INS-1E cells, GLuc reporter luminescence. INS-1E GLuc reporter insulin secretion, 2-3 h. activation, % at 16.6 µM. actives 0.61% (n = 370,000);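 active = lowest replicate activation of at least 40%, so every replicate reaches that level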;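 note: 0% = median of neutral control wells and 100% = median of IBMX positive control wells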
RAD54 branch – RAD54 (human) branch migration inhibition | Q92698 | RAD54 Holliday junction branch migration, FAM/BHQ fluorescence | inhibition, % at 10.4 µM | actives 0.14% (n = 360,000) | AID 602329;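 active = mean normalized replicate activity at least 40 and at least half of replicates scoring 40 or more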;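 note: 0% = median of neutral control wells and 100% = median of positive control wells; inhibitors cause a drop in the FAM fluorescence signal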
PglD inh – blocks C. jejuni PglD acetyltransferase activity; actives 0.098% (n = 360,000); purified PglD enzyme, DTNB colorimetric CoA detection; inhibition, % at 12.5 µM; in the data active = inhibition above about 16%, passing the limit was not always enough
RAD52 anneal inh – RAD52 (human) annealing inhibition | P43351 | recombinant RAD52 DNA annealing, FRET fluorescence | inhibition, % at 18.7 µM | actives 0.46% (n = 360,000);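 active = every replicate showing at least 50% inhibition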
Yeast UUG start-1 – modulators of start codon recognition fidelity in yeast. S. cerevisiae UUG-firefly luciferase reporter, luminescence/redox ratio. activity score, % at 18.7 µM. 0.13% of 350,000 active. AID 602363;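 active = replicate mean at a twofold rise or more, about +100% in these data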;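 also: firefly luciferase made from a UUG start codon reports start codon fidelity; reporter light over untreated wells divided by growth signal over untreated wells; some hits fall short of that in this replicate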
Casp6 inh – inhibitors of human caspase-6; inhibition, % at 12.5 µM; P55212; purified caspase-6, Z-VEID-R110 cleavage fluorescence; actives 0.53% (n = 350,000);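 active = mean inhibition across replicates at least about 35%, with every replicate also reaching that limit, limit read from the data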;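 note: 0% = median of neutral control wells and 100% = no fluorescence left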
Yeast UUG start-2 – alters UUG start codon use in yeast | S. cerevisiae UUG-start firefly luciferase, luminescence, 4 h; 100% means double the DMSO signal | shares compounds with Yeast UUG start-1 | activation, % at 38 µM | 540 tested, under 10 active;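 active = signal increase whose fitted curve reaches an absolute level of 40 at a concentration under 10 µM; inactive = activity opposite to the expected increase, or the rest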
* = called active by the depositor. A selection: hits, their analogues and other compounds. The true share with any hit is near 1.5%.

The first 4 compounds (preview)
Results for CCc1ccc(/C=N/NC(=O)c2cc(C3CC3)nc3ccccc23)s1 ?
RAD54 branch: 0; PglD inh: -1; Yeast UUG start-1: 307*; Yeast UUG start-2: -4

What do the screens show for `O=C(Nc1ccccc1Br)c1ccc2nccnc2c1`?
GSIS activator: 15; RAD54 branch: 12; PglD inh: -8; RAD52 anneal inh: -9; Yeast UUG start-1: -10; Casp6 inh: 2

What do the screens show for `CCCc1cc(=O)[nH]c(SCC(=O)c2cc(C)n(-c3cc(C)on3)c2C)n1`?
GSIS activator: -7; RAD52 anneal inh: -19; Yeast UUG start-2: -2

What do the screens show for `Cc1cc(-n2c(C)cc(C(=O)CSc3nc(N)cc(=O)[nH]3)c2C)no1`?
GSIS activator: 2; RAD54 branch: -3; PglD inh: 2; RAD52 anneal inh: -13; Yeast UUG start-1: -8; Casp6 inh: 1; Yeast UUG start-2: 5

The whole of this part (from the top)
Results for CCc1ccc(/C=N/NC(=O)c2cc(C3CC3)nc3ccccc23)s1 ?
RAD54 branch: 0; PglD inh: -1; Yeast UUG start-1: 307*; Yeast UUG start-2: -4

What do the screens show for `O=C(Nc1ccccc1Br)c1ccc2nccnc2c1`?
GSIS activator: 15; RAD54 branch: 12; PglD inh: -8; RAD52 anneal inh: -9; Yeast UUG start-1: -10; Casp6 inh: 2

What do the screens show for `CCCc1cc(=O)[nH]c(SCC(=O)c2cc(C)n(-c3cc(C)on3)c2C)n1`?
GSIS activator: -7; RAD52 anneal inh: -19; Yeast UUG start-2: -2

What do the screens show for `Cc1cc(-n2c(C)cc(C(=O)CSc3nc(N)cc(=O)[nH]3)c2C)no1`?
GSIS activator: 2; RAD54 branch: -3; PglD inh: 2; RAD52 anneal inh: -13; Yeast UUG start-1: -8; Casp6 inh: 1; Yeast UUG start-2: 5

What do the screens show for `CCCc1cc(=O)[nH]c(SCC(=O)c2cc(C)n(C)c2C)n1`?
RAD54 branch: -5; PglD inh: 7; Yeast UUG start-1: -22

How did Cc1cc(C(=O)CSc2nc(N)cc(=O)[nH]2)c(C)n1-c1ccc(OC(F)F)cc1 do in these assays?
GSIS activator: 9; RAD54 branch: -5; PglD inh: 3; RAD52 anneal inh: -14; Yeast UUG start-1: -14

Results for O=C(NCC1OCCc2ccccc21)c1ccco1 (configuration not stated) ?
RAD54 branch: 4; PglD inh: 5; Yeast UUG start-1: 323*; Yeast UUG start-2: 2

Results for O=C(Nc1ccccc1C(=O)NCC1CCCO1)c1ccc(Cl)cc1Cl (configuration not stated) ?
RAD54 branch: 0; PglD inh: 2; Yeast UUG start-1: -7

What do the screens show for `Cc1nn(CC(=O)N2CCN(c3ccccc3)CC2)c(=O)c2ccccc12`?
GSIS activator: -15; RAD54 branch: -3; PglD inh: -4; RAD52 anneal inh: -15; Yeast UUG start-1: -24; Casp6 inh: 1; Yeast UUG start-2: 1

What do the screens show for `COc1ccc(OC)c(NC(=O)Cn2cc(C(=O)c3ccco3)c3ccccc32)c1`?
RAD54 branch: 4; PglD inh: 2; Yeast UUG start-1: 134*; Yeast UUG start-2: 13

Results for Cn1nc(CC(=O)Nc2cccc3ncccc23)c2ccccc2c1=O ?
RAD54 branch: -12; PglD inh: 0; Yeast UUG start-1: -13; Yeast UUG start-2: -4

How did COc1cc(NC(=O)Cc2nn(C)c(=O)c3ccccc23)cc(OC)c1OC do in these assays?
GSIS activator: -9; RAD54 branch: 3; PglD inh: 0; RAD52 anneal inh: -17; Yeast UUG start-1: 3; Casp6 inh: 3

How did COc1ccc(OC)c(NC(=O)Cc2nn(C)c(=O)c3ccccc23)c1 do in these assays?
RAD54 branch: -7; PglD inh: -1; Yeast UUG start-1: -11; Yeast UUG start-2: 10

How did COc1ccccc1NC(=O)Cn1cc(C(=O)c2ccco2)c2ccccc21 do in these assays?
GSIS activator: -20; RAD54 branch: 6; PglD inh: 1; RAD52 anneal inh: -34; Yeast UUG start-1: 4; Casp6 inh: 3

What do the screens show for `O=C(CN1C(=O)NC2(CCCC2)C1=O)NC(c1ccccc1)c1ccccc1`?
GSIS activator: -33; RAD54 branch: 6; PglD inh: 0; RAD52 anneal inh: 4; Yeast UUG start-1: -3; Casp6 inh: 3

What do the screens show for `O=C(CN1CCN(Cc2ccccc2)CC1)NCc1ccccc1Cl`?
GSIS activator: 2; RAD54 branch: 0; PglD inh: 0; RAD52 anneal inh: -11; Yeast UUG start-1: -13; Casp6 inh: -1

Results for CO[C@@H]1CN(C)C(=O)c2ccc(NC(C)=O)cc2OC[C@H](C)N(C(=O)C2CCC2)C[C@H]1C ?
GSIS activator: -1; RAD54 branch: 2; PglD inh: -5; RAD52 anneal inh: -5; Yeast UUG start-1: 18; Casp6 inh: -8

What do the screens show for `COc1ccc(N2CCN(C(=O)Cc3nn(C)c(=O)c4ccccc34)CC2)cc1`?
RAD54 branch: -3; PglD inh: 2; Yeast UUG start-1: -20; Yeast UUG start-2: 10

Results for Cc1ccc(NC(=O)c2ccc(-n3cccn3)c([N+](=O)[O-])c2)cc1C ?
RAD54 branch: 2; PglD inh: 1; Yeast UUG start-1: -15

Results for COc1ccc(CCNS(=O)(=O)c2cccc(F)c2)cc1OC ?
RAD54 branch: 3; PglD inh: -1; Yeast UUG start-1: 0; Yeast UUG start-2: 1

How did COc1ccc(S(=O)(=O)NCCc2ccc(OC)c(OC)c2)cc1Cl do in these assays?
Yeast UUG start-2: inactive

How did COc1ccc(CCNS(=O)(=O)c2ccc(Br)cc2)cc1 do in these assays?
GSIS activator: 1; RAD54 branch: 0; PglD inh: 6; RAD52 anneal inh: -3; Yeast UUG start-1: -11; Casp6 inh: -2

Results for COc1ccc(S(=O)(=O)NCCc2ccccc2)cc1 ?
GSIS activator: 1; RAD54 branch: -3; PglD inh: 0; Yeast UUG start-1: 10; Yeast UUG start-2: 0

What do the screens show for `COc1ccc(CCNS(=O)(=O)c2cccc(C)c2)cc1OC`?
GSIS activator: 90*; RAD54 branch: 9; PglD inh: -8; Yeast UUG start-1: -7; Yeast UUG start-2: 8

Results for COCCNC(=O)C1CCCN(C(=O)c2cc(-c3ccccc3)cs2)CC1 (configuration not stated) ?
GSIS activator: 6; RAD54 branch: -9; PglD inh: 1; RAD52 anneal inh: -10; Yeast UUG start-1: -7; Casp6 inh: -3

How did O=[N+]([O-])c1ccc(-c2nn(-c3ccccc3)cc2/C=N/n2c(-c3cccs3)n[nH]c2=S)cc1 do in these assays?
GSIS activator: 1; RAD54 branch: -1; PglD inh: 5; RAD52 anneal inh: -18; Yeast UUG start-1: -8; Casp6 inh: -1

How did COc1ccc(CCNS(=O)(=O)c2ccc3c(c2)OCCO3)cc1OC do in these assays?
Yeast UUG start-2: -3

How did COc1ccccc1Nc1nc2ccccc2[nH]1 do in these assays?
GSIS activator: 8; RAD54 branch: -2; PglD inh: 0; Yeast UUG start-1: -20; Yeast UUG start-2: -2

What do the screens show for `O=C(O)CSc1nnc2c(n1)[nH]c1ccccc12`?
GSIS activator: 1; RAD52 anneal inh: -8; Casp6 inh: 2

Results for O=C(CSc1nnc2c(n1)[nH]c1ccccc12)OCc1ccccc1 ?
GSIS activator: 21; RAD54 branch: 4; PglD inh: -3; Yeast UUG start-1: 410*; Yeast UUG start-2: 1

Results for Cc1ccc(NC(=O)CSc2nnnn2-c2cccnc2)c(C)c1 ?
GSIS activator: 7; RAD54 branch: -11; PglD inh: -6; RAD52 anneal inh: -6; Yeast UUG start-1: -7; Casp6 inh: -2

Screens (PubChem BioAssay)
